Apparent affinities of Ab-14 variants for a coronavirus HR2 peptide

Binding partner: SARS-CoV-2 spike HR2 peptide, sequence PDVDLGDISGINAS.

Parent scFv Ab-14: VH joined to VL by a (GGGGS)3 linker. Changes lie in the heavy chain CDRs alone.
VH: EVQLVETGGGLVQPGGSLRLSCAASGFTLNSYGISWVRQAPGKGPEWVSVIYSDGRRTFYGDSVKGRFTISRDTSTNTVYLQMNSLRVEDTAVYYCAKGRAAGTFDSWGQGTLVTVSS
VL: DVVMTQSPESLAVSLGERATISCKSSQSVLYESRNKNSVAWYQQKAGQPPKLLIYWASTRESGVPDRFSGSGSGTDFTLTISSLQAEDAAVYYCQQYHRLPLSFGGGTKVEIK

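Phage display of a naive human antibody library on the peptide gave the parent. The variants were designed computationally from a first round of random CDR variants and then made and measured. Their group label is 14H_GPLM_Gibbs (GPLM: also part of the Gaussian process libraries; Gibbs: Gibbs sampling; a sequence that several methods proposed may carry one label only). Affinity was read by AlphaSeq, a pooled yeast mating assay with surface-displayed partners. After mating in shaken culture at 30 °C for 16 h, diploids were selected and their barcode pairs sequenced. Scores were corrected for input abundance and mapped to Kd with protein pairs of known affinity run in the same pool. The assay was run in six technical replicates.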

Substitutions are numbered in sequence along the VH above, starting at 1 (not Kabat).
Scale: log10 of Kd in nM, estimated from mating counts; low values are strong binders.
The mean shown is taken over the replicates in which the pair was detected.
An entry "nd" has no value in the source: the pair was not observed among the diploids in that replicate. This suggests poor binding but is not conclusive.

{"changes": "T28E+S53A+S107V", "log10 Kd, replicates": "-0.13 -0.22 -0.52 -0.33 -0.38 -0.25", "mean, log10 nM": "-0.30", "control signals": "0 of 18"}
{"changes": "T28D+G61H+A101E", "log10 Kd, replicates": "nd -0.34 0.44 -0.38 0.72 -0.83", "mean, log10 nM": "-0.08", "control signals": "0 of 18"}
{"changes": "G61T+R100K+A101V", "log10 Kd, replicates": "0.69 0.76 0.12 1.39 0.04 1.38", "mean, log10 nM": "0.73", "control signals": "0 of 18"}
{"changes": "T28S+S31E+S63A+R100Q", "log10 Kd, replicates": "0.30 -0.02 0.47 -0.03 0.21 0.21", "mean, log10 nM": "0.19", "control signals": "0 of 18"}
{"changes": "T28D+G61A+A101T+S107C", "log10 Kd, replicates": "0.60 0.18 0.23 0.02 -0.19 0.21", "mean, log10 nM": "0.18", "control signals": "1 of 18 (1.82)"}
{"changes": "T28S+S31N+A101V+S107T", "log10 Kd, replicates": "-0.05 0.01 0.20 0.28 0.04 -0.27", "mean, log10 nM": "0.03", "control signals": "0 of 18"}
{"changes": "T28N+R100K+A101T", "log10 Kd, replicates": "1.15 0.53 -0.05 -0.12 0.47 0.20", "mean, log10 nM": "0.36", "control signals": "0 of 18"}
{"changes": "T28D+S63A+R100N", "log10 Kd, replicates": "0.08 1.39 0.32 nd 0.53 nd", "mean, log10 nM": "0.58", "control signals": "0 of 18"}
{"changes": "S31E+A101V+S107V", "log10 Kd, replicates": "0.02 0.06 -0.35 -0.22 -0.17 -0.12", "mean, log10 nM": "-0.13", "control signals": "1 of 18 (2.69)"}
{"changes": "T28E+R100K+A101M", "log10 Kd, replicates": "1.08 0.46 0.61 1.53 0.63 0.74", "mean, log10 nM": "0.84", "control signals": "0 of 18"}
{"changes": "T28S+G61S+R100K+A101T", "log10 Kd, replicates": "-0.38 -0.18 -0.52 -0.42 -0.87 -0.49", "mean, log10 nM": "-0.48", "control signals": "0 of 18"}
{"changes": "T28D+R56K+A101E", "log10 Kd, replicates": "-0.62 -0.49 -0.52 -0.64 -0.65 -0.37", "mean, log10 nM": "-0.55", "control signals": "1 of 18 (1.38)"}
{"changes": "T28N+F59A+A101Q", "log10 Kd, replicates": "1.30 0.96 1.21 0.82 1.17 1.21", "mean, log10 nM": "1.11", "control signals": "0 of 18"}
{"changes": "T28S+F59A+R100H", "log10 Kd, replicates": "0.07 -1.06 -0.71 -0.23 -0.48 -0.18", "mean, log10 nM": "-0.43", "control signals": "1 of 18 (0.45)"}
{"changes": "T28E+R100K+A101T+S107V", "log10 Kd, replicates": "0.10 0.00 0.18 0.24 0.32 0.11", "mean, log10 nM": "0.16", "control signals": "0 of 18"}
{"changes": "G61A+R100S+S107K", "log10 Kd, replicates": "0.87 0.91 0.98 0.10 0.72 0.53", "mean, log10 nM": "0.69", "control signals": "2 of 18 (2.97)"}
{"changes": "T28S+G61C+S63R+R100E", "log10 Kd, replicates": "nd nd nd 1.54 1.67 nd", "mean, log10 nM": "1.60", "control signals": "0 of 18"}
{"changes": "T28D+R100W+A101T", "log10 Kd, replicates": "-0.01 0.23 0.63 0.57 0.88 0.06", "mean, log10 nM": "0.40", "control signals": "0 of 18"}
{"changes": "T28Q+S31D+G61A+A101T", "log10 Kd, replicates": "0.09 0.16 0.17 0.41 0.72 0.43", "mean, log10 nM": "0.33", "control signals": "0 of 18"}
{"changes": "T28Q+G61S+R100Q+S107L", "log10 Kd, replicates": "1.00 1.17 1.52 2.23 0.67 1.65", "mean, log10 nM": "1.37", "control signals": "1 of 18 (2.23)"}
{"changes": "T28E+S31D+A101Q+S107A", "log10 Kd, replicates": "0.27 0.24 0.45 0.04 0.08 0.21", "mean, log10 nM": "0.22", "control signals": "1 of 18 (2.91)"}
{"changes": "T28G+G61A+A101E", "log10 Kd, replicates": "-0.08 0.26 0.37 -0.47 0.01 0.39", "mean, log10 nM": "0.08", "control signals": "0 of 18"}
{"changes": "T28E+R100K+A101H", "log10 Kd, replicates": "nd 1.83 1.73 1.65 2.31 1.84", "mean, log10 nM": "1.87", "control signals": "0 of 18"}
{"changes": "T28D+G61K+R100N", "log10 Kd, replicates": "0.64 1.23 0.57 -0.13 0.49 0.87", "mean, log10 nM": "0.61", "control signals": "0 of 18"}
{"changes": "T28N+G61I+A101V+S107T", "log10 Kd, replicates": "1.15 2.11 0.70 0.75 nd 1.96", "mean, log10 nM": "1.33", "control signals": "1 of 18 (1.49)"}
{"changes": "T28Q+R56K+A101T", "log10 Kd, replicates": "1.20 1.19 0.48 0.44 0.67 2.66", "mean, log10 nM": "1.11", "control signals": "0 of 18"}
{"changes": "G26K+T28N+G61A+A101M", "log10 Kd, replicates": "1.69 1.33 nd 1.90 1.76 2.97", "mean, log10 nM": "1.93", "control signals": "1 of 18 (2.04)"}
{"changes": "T28D+F59V+A101E", "log10 Kd, replicates": "0.64 0.22 0.59 0.18 -0.20 0.15", "mean, log10 nM": "0.26", "control signals": "0 of 18"}
{"changes": "T28G+S31E+G61I+R100Q", "log10 Kd, replicates": "0.20 0.16 0.83 0.26 0.08 0.33", "mean, log10 nM": "0.31", "control signals": "1 of 18 (1.62)"}
{"changes": "R56K+G61S+R100E+S107T", "log10 Kd, replicates": "nd nd -0.15 1.18 0.06 0.72", "mean, log10 nM": "0.45", "control signals": "0 of 18"}
{"changes": "R100Q+A101V+S107L", "log10 Kd, replicates": "1.07 1.34 2.52 1.21 1.22 1.17", "mean, log10 nM": "1.42", "control signals": "1 of 18 (2.46)"}
{"changes": "T28N+G61I+A101V", "log10 Kd, replicates": "nd nd -1.39 nd nd -0.45", "mean, log10 nM": "-0.92", "control signals": "0 of 18"}

Picked from the list: the 3 lowest averages where every replicate gave a value.

changes,"log10 Kd, replicates","mean, log10 nM",control signals
T28D+R56K+A101E,-0.62 -0.49 -0.52 -0.64 -0.65 -0.37,-0.55,1 of 18 (1.38)
T28S+G61S+R100K+A101T,-0.38 -0.18 -0.52 -0.42 -0.87 -0.49,-0.48,0 of 18
T28S+F59A+R100H,0.07 -1.06 -0.71 -0.23 -0.48 -0.18,-0.43,1 of 18 (0.45)

Empty control strains, which show no peptide, gave a signal in 1% of pairings with all heavy chain designs; the median was 2.08 and 95% of these signals were weaker than 0.84. No background was subtracted. The control count says in how many pairings with the empty strains this scFv gave a signal, with their mean in brackets.
The authors' rule: three or more of the six replicates give a measured affinity, fewer mean a poor binder.
Of ten entries with the parent sequence, four were seen in most replicates (averages 0.34 to 2.37), three in one and three in none, so single entries are noisy.
A sequence measured in both rounds can read differently, since the two assays cover different ranges.

From the AlphaSeq antibody data of Li et al. 2023 (doi:10.1038/s41467-023-39022-2), copy in the FLAb collection.